# Values quoted from earlier work as cited in article PMC4144739 (The Journal of Experimental Medicine, 2014).
# B1: IFN-β: effective therapeutic for active EAE and multiple sclerosis (protein, UniProt P01574 22-187, looked up)
# Interferon beta: MSYNLLGFLQRSSNFQCQKLLWQLNGRLEYCLKDRMNFDIPEEIKQLQQFQKEDAALTIYEMLQNIFAIFRQDSSSTGWNETIVENLLANVYHQINHLKTVLEEKLEKEDFTRGKLMSSLHLKRYYGRILHYLKAKEYSHCAWTIVRVEILRNFYFINRLTGYLRN
# Conditions: ref Arnason, 1999; cited from earlier work
molecule,measurement,value
B1,therapeutic effect in active EAE and multiple sclerosis,effective therapeutic for active EAE and multiple sclerosis
